In patent publication US20130084328A1, “METHYLATED CODING AND NON-CODING RNA GENES AS DIAGNOSTIC AND THERAPEUTIC TOOLS FOR HUMAN MELANOMA” (Sanford-Burnham Medical Research Institute, priority 2011, published 2013):

What was measured:
WM1552C cells [1] = experiment: Matrigel invasion assay, miR-375; type: cell-based, human; conditions: WM1552C/375, 48 hrs
Procedure: BD BioCoat™ growth factor reduced insert plates (Matrigel™ Invasion Chamber 12 well plates) were prepared by rehydrating the BD Matrigel™ matrix coating in the inserts with 0.5 ml of culture medium for 2 hrs at 37° C. The rehydration solution was carefully removed from the inserts, 0.75 mL Complete Tu medium containing chemoattractant (1% FBS) was added to the lower wells of the plate, and 0.5 mL of cell suspension (1×10^4 cells, in serum-free medium) was added to each insert well. Invasion assay plates were incubated for 48 hrs at 37° C. Following incubation, the non-invading cells were removed by scrubbing the upper surface of the insert. The cells on the lower surface of the insert were stained with crystal violet and each trans-well membrane mounted on a microscopic slide for visualization and analysis. The slides were scanned using the Scanscope digital slide scanner, and the number of cells migrating was counted using Aperio software.

WM1552C cells [2] = experiment: wound-healing motility assay, miR-375; type: cell-based, human; conditions: WM1552C/375, by 20 hours
Procedure: The in vitro motility of transfectants was measured in a wound-healing assay conducted as follows. […] The cell monolayers were gently scratched with a pipette tip across the diameter of the dish and rinsed extensively with medium to remove cellular debris. The surface area of the scratch was quantified immediately after wounding and then again every 20 minutes for 24 hours on the Nikon Bio Station IM. The extent of wound closure was established by calculating the ratio between the surface area of the wound for each time point versus the surface area of the initial wound. […] The surface area was determined using NIS Elements software and performed in triplicates.

WM1552C melanoma cells = experiment: cellular morphology of stable miR-375-expressing melanoma cells; type: cell-based, human; conditions: light microscopy, vs wild type and vector control cells
Procedure: Changes in cellular morphology of stable miR-375-expressing melanoma cells were measured compared with “vector-only” and untransfected cells, as shown in FIG. 4. To construct a stable miR-375-expressing melanoma cell line, oligonucleotides complimentary to the has-miR-375 genomic sequences were constructed with miR-375 pre For (CCC CGC GAC GAG CCC C; SEQ ID NO:27) and miR-375 pre Rev (GCC TCA CGC GAG CCG AAC G; SEQ ID NO:28). These oligonucleotides contained HindIII and BamHI sites on their respective 5′ and 3′ ends and were amplified from melanocyte genomic DNA (Amplitaq Gold, Applied Biosystems/Life Technologies). The product was then TOPO-cloned into pCR4-TOPO (Invitrogen/Life Technologies) and the vector construct was sequenced. The pre-hsa-miR-375 fragment was sub-cloned into pcDNA4/H1 using the HindIII and BamHI sites to create pcDNA/H1/miR-375. […] The following day, cells were selected with 800 μg/mL Zeocin for the following 15 days.
Live cells were imaged under normal culturing conditions by light microscope (Olympus IX71). The morphology time course was performed with cells growing exponentially, trypsinized and seeded with 2×10^4 cells into 4-well Lab-Tek II chamber slides (Thermo Fisher Scientific), with one slide per time point. […] The slides were then labeled with DAPI and fluorescence-labeled phalloidin, then imaged on a Nikon Eclipse microscope.

WM1552C cells [3] = experiment: proliferation assay, miR-375; type: cell-based, human; conditions: WM1552C/375 vs WM1552C or WM1552C/VO, sustained over 96 hour
Procedure: Exponentially growing cells were trypsinized and counted with the help of a Countess cell counter (Invitrogen/Life Technologies) and seeded at 10^4 cells/cm^2 (0.1×10^6 cells/35-mm petri dish), which was taken as the initial value (N0) for all growth kinetics measurements. Cells were harvested at 24-hrs intervals up to 72 hrs by trypsinization. A minimum of 6 observations spread over 2 independent experiments were taken for determining the proliferation rate ‘pR’:
where N0=number of cells at 0 h, and Nt=number of cells at time ‘t’. The mean doubling time of untreated cells was calculated from the exponential region of the growth curves, in this case between 24 hrs and 72 hrs.

miR-34b = experiment: Northern blot of miR-34b expression after 5-Aza-dC; type: cell-based, human; conditions: WM1552C
TERC = TERC expression in Aza-treated WM1552C cells; type: cell-based, human
WM1552C cells [4] = experiment: miRNA expression profiling after 5AzadC and/or 4-PBA treatment (TLDA, NCode, qRT-PCR); type: cell-based, human; conditions: for expression level of epigenetically regulated miRNAs: melanoma-derived cell lines, treated vs untreated
Procedure: The assay was performed in duplicate. For cDNA synthesis and real-time PCR by Taqman Low Density Array (TLDA), total RNA (800 ng) was subjected to 8 separate reverse transcription reactions (100 ng each) using Multiplex RT for TaqMan® MicroRNA Assays, Human Pool Set kit (Applied Biosystems/Life Technologies). The resulting cDNA (10 μL) was diluted 1:62.5 with nuclease-free water. TLDAs consisting of a panel of 365 human miRNAs and 3 miRNA endogenous controls were run in triplicate for each sample. Diluted cDNA (50 μL) was added to 50 μL of 2× TaqMan Universal Master Mix (No AmpErase UNG; Applied Biosystems/Life Technologies). This 100-4, mixture was applied to the respective array port and the TLDA was then centrifuged twice and sealed. Quantitative real-time PCR was performed using the Applied Biosystems 7900 Real-Time PCR Sequence Detection System with the following thermal cycling parameters: 94.5° C. for 30 s followed by 40 cycles of 97° C. for 30 s, 59.7° C. for 1 min. To identify transcriptional changes in melanoma cells induced by DNA methylation and/or histone modification, WM1552 cells were treated as above with 5AzadC, 4-PBA, or with both. Following exposure, cellular miRNA expression was compared between treated and untreated cells using two miRNA expression profiling platforms (TILDA; ABI and NCode; Lifetech).

miR-375 CpG island = experiment: bisulfite sequencing of miR-375 CpG island in 5AzadC-treated cells; type: cell-based, human; conditions: WM1552C cells; 68.2% without treatment
miR-34b CpG island = experiment: bisulfite sequencing of miR-34b CpG island in 5-Aza-dC-treated cells; type: cell-based, human; conditions: WM1552C
miR-375 = conditions: WM1552C cells, Northern blotting

Compound: miR-375: nucleic acid exemplified by SEQ ID NO:1 (UUUGUUCGUUCGGCUCGCGUGA); stably expressed in WM1552C from pcDNA4/H1 vector (WM1552C/375) (UUUGUUCGUUCGGCUCGCGUGA)
- invasion frequency relative to wild type or vector-expressing cells (WM1552C cells [1]): less than 50%
- wound closure (WM1552C cells [2]): less than 30%
- cell morphology (WM1552C melanoma cells): more slender and elongated shape
- reduction of proliferation (WM1552C cells [3]): 10 to 15%

Compound: Nc1ncn([C@H]2C[C@H](O)[C@@H](CO)O2)c(=O)n1 [5AzadC, 5-aza-2′-deoxycytidine]
- concentration of maximum induction of miR-34b expression (miR-34b): 10 µM
- expression of miR-34b (miR-34b; increasing concentrations): induced
- TERC expression (TERC): up-regulation
- expression level of epigenetically regulated miRNAs (WM1552C cells [4]): markedly increases
- miR-34b expression (WM1552C cells [4]; qRT-PCR, FIG. 1B): strongly modulated
- methylation level of miR-375 CpG island after treatment (miR-375 CpG island): 16.7%
- CpG island methylation of miR-34b (miR-34b CpG island): largely erased

Compound: O=C(O)CCCc1ccccc1 [4-PBA, 4-phenylbutyrate]
- expression level of epigenetically regulated miRNAs (WM1552C cells [4]): no statistically significant effects
- miR-375 expression (miR-375): but not by 4-PBA treatment
